Amino acid sequences for entries named in this document (tags omitted). A change or cut given only in a name is not applied to a line headed by its entry. Residues count along the entry.
UniProt Q16548, 1-153: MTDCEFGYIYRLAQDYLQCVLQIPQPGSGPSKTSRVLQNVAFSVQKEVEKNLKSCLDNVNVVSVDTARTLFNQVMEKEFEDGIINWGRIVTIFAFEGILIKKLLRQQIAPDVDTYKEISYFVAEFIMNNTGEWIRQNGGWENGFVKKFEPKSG

In patent US9926306B2, “Inhibition of MCL-1 and/or BFL-1/A1” (Dana-Farber Cancer Institute, Inc., priority 2012, dated 2018):

Target: BFL-1/A1ΔC (Homo sapiens (Human), UniProt Q16548)
Experiment: Competitive fluorescence polarization binding assay, BFL-1/A1 (FITC-BID BH3)
Conditions: BFL-1/A1 (IC50), Table A
Source text: FIG. 19A and FIG. 19B are graphs that show potent targeting of the anti-apoptotic protein BFL-1/A1 by MIM1. […] Thus, the complex between FITC-BID BH3 and BFL-1/A1ΔC was employed in a competitive FP assay to monitor the capacity of MIM1 to target BFL-1/A1ΔC.

For `CC(C)C(C)/N=C1\SCC(Br)(C2CC2)N1/N=C/c1cc(O)c(O)cc1O` (stereo not shown) [187-19], the IC50 was 124 nM.
